Earlier results as cited in patent publication US12133915B2, “Method of treating epilepsy” (ALEXZA PHARMACEUTICALS, INC., priority 2016, dated 2024).

Details: in vivo; cited from earlier work

For `O=C1CN=C(c2ccccc2)c2cc(Cl)ccc2N1` [Desmethyl-DZ], the half-life is given as 71 h.
